Literature values, collected in patent US7815912B2, “Method of controlled ovarian hyperstimulation and pharmaceutical kit for use in such method” (Ares Trading, S.A., priority 2002, dated 2010).

Details: cited from earlier work

Row | Substance | in vivo half-life (t1/2) [min]
1 | LH isolated from urine: luteinising hormone isolated from female urine | 10 to 20
2 | recLH: LH obtained from a recombinant cell line | 720 to 780
